This note sets out measurements from patent publication US20060003399.

Series [1] addresses Full length human N-WASP, TAP-tagged at the C-terminus (Myc-N-WASP-TAP).
For series [2], the target named is Full length human WASP, TAP-tagged at the C-terminus (Myc-WASP-TAP).

B1: GST-tev-Cdc42 (protein)
chain: MSPILGYWKIKGLVQPTRLLLEYLEEKYEEHLYERDEGDKWRNKKFELGLEFPNLPYYIDGDVKLTQSMAIIRYIADKHNMLGGCPKERAEISMLEGAVLDIRYGVSRIAYSKDFETLKVDFLSKLPEMLKMFEDRLCHKTYLNGDHVTHPDFMLYDALDVVLYMDPMCLDAFPKLVCFKKRIEAIPQIDKYLKSSKYIAWPLQGWQATFGGGDHPPKSDLVPRPWSNQTSLYKKAGFENLYFQGQTIKCVVVGDVAVGKTCLLISYTTNKFPSEYVPTVFDNYAVTVMIGGEPYTLGLFDTAGQEDYDRLRPLSYPQTDVFLVCFSVVSPSSFENVKEKWVPEITHHCPKTPFLLVGTQIDLRDDPSTIEKLAKNKQKPITPETAEKLARDLKAVKYVECSALTQRGLKNVFDEAILAALEPPETQPKRKCCIF
As for B1, in series [1], the Barbed ends amounted to 1.3 nM, the Barbed ends % of max. came to 9% and the “acceleration of actin polymerization” value was “the upstream regulators or activators Cdc42 or Nck1 accelerated actin polymerization 13-fold”. In series [2], the Barbed ends was 3.8 nM, the Barbed ends % of max. is 87% and the “acceleration of actin polymerization” value is on record as “the upstream regulators or activators Cdc42 or Nck1 accelerated actin polymerization 13-fold”.
